## Measured affinities in a library of Ab-14 heavy chain variants

Target: peptide PDVDLGDISGINAS, taken from heptad repeat 2 (HR2) of SARS-CoV-2 spike.

Parent scFv Ab-14: VH joined to VL by the linker GGGGSGGGGSGGGGS. Changes lie in the heavy chain CDRs alone.
VH: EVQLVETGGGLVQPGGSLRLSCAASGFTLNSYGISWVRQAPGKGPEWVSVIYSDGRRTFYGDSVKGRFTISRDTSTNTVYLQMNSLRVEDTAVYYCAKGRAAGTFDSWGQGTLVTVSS
VL: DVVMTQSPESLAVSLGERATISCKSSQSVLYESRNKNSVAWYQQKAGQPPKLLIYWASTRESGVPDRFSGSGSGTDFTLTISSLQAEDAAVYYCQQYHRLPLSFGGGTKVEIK

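Phage display of a naive human antibody library on the peptide gave the parent. Designed CDR sequences, proposed from the first random library and measured here. Group labels follow the data file (Ctrl: baseline library sampled from a position-specific scoring matrix, with some repeated check sequences; GP: Gaussian process model; GPLM: also part of the Gaussian process libraries; HC: hill climbing; Gen: genetic algorithm; Gibbs: Gibbs sampling; a sequence that several methods proposed may carry one label only). The assay is AlphaSeq: two haploid yeast populations carry antibody and antigen on their surface. Binding brings cells together so that they mate, and sequencing counts the barcode pairs among the diploids. The ratio of observed to expected reads was calibrated, replicate by replicate, on BCL2-family standards whose Kd was known from biolayer interferometry. The assay was run in six technical replicates.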

Variants are written as CDR1, CDR2 and CDR3 of the heavy chain (limits as in the source). Parent: GFTLNSYGIS, VIYSDGRRTFYGDSVK, GRAAGTFDS.
Variants here have at most six changes.
Values are log10 of the apparent Kd in nM; lower means stronger binding.
A mean of the replicates is given; it leaves out those without a signal.
An entry "nd" has no value in the source: the pair was not observed among the diploids in any replicate. This suggests poor binding but is not conclusive.
The authors averaged sequences with at least three values out of six and counted those with two or fewer as poor binders.

The variant GETLNMYGIS | VIYSDGRRTFYGDSVK | GRAAGTFDS [Ctrl] gave 3.37 (1 of 6 replicates). With GFDLNSYGIS | VIYSDGRRTFYVDSVK | GSAAGTFDS [GPLM_HC] the result was -0.52 (6 of 6 replicates). With DFTLNEYGIS | VIYSDGRRTFYGDSYK | GEAPGTFDS [Ctrl] the result was 0.80 (6 of 6 replicates). With GFTLNEYGIS | VIYSDGRRTFYGDSVK | GRYAGTFDT [GPLM_Gen] the result was 0.04 (6 of 6 replicates). The variant GFELNSYGIS | VIYADGRRTFYGDSVK | GKAAGTFDD [GP_Gen] showed 0.46 (6 of 6 replicates). The variant GFALNDYGIS | VIYSDGRRTFYGNSVK | GRADGTFDS [Ctrl] gave 0.90 (6 of 6 replicates).

The variant GFTLNSYGIS | VIYSDGRRTFYYDSVK | GRAAGTFDS [Ctrl] gave nd (0 of 6 replicates). For GFTLNSYGIS | VIYSDGRRTFYGDSVK | GHEAGTFDT [GPLM_Gen], the assay gave 0.61 (6 of 6 replicates). For GFQLNSYGIS | VIYSDGRRTFYADKVK | GRTAGTFDS [GP_Gibbs], the assay gave 1.03 (5 of 6 replicates). The variant GLRLNSYGIS | VIYSDGRRTFYGDSVK | RRAVGTFDS [Ctrl] gave nd (0 of 6 replicates). For GFTLNSYGIS | VIYSDGRRTAYGDSVK | GKAAGTFDS [Ctrl], the assay gave 1.09 (6 of 6 replicates). The variant GFTLNSYGIS | VIYSDGRRTFYSDDVK | GQAAGTFDT [GP_Gibbs] gave 0.14 (6 of 6 replicates).

The variant GFTLNKYGIS | VIYSDGRRTFYGDSVK | GWAVGTFDS [Ctrl] showed nd (0 of 6 replicates). The variant GFTLDSYGIS | VIYSDGRRTFYGDSVK | GRAAGTFRV [GP_HC] gave nd (0 of 6 replicates). For GFQLNDYGIS | VIYSDGRRTFYSDSVK | GKAAGTFDS [GP_HC], the assay gave 0.35 (6 of 6 replicates). With GFVLASYGIS | VIYSDGRRTFYGDSVK | GDAAGTFDS [Ctrl] the result was 2.36 (1 of 6 replicates). The variant GETLNSYGIS | VIYSDGRRTFYGDSVK | GRAPGTFDS [Ctrl] gave nd (0 of 6 replicates). The variant GFHLNSYGIS | VIYSDGRRTFYVDSVK | GQAAGTFDS [GPLM_Gen] showed nd (0 of 6 replicates).

For GFSLNEYGIS | VIYSDGRRTFYGDSVK | GRTAGTFCS [GP_Gen], the assay gave 2.82 (5 of 6 replicates). The variant GFELNSYGIS | VIYADGRRTFYDDSVK | GKAAGTFDS [GP_Gen] gave -1.06 (5 of 6 replicates). The variant GFDLNSYGIS | VIYSDGRRTFYGDSVK | GRQAGTFNS [GPLM_HC] showed 1.87 (5 of 6 replicates). For GFSLNSYGIS | VIYSDGRRTFYGDSVK | GKEAGTFDT [GPLM_Gibbs], the assay gave -0.38 (6 of 6 replicates). The variant GFTLNSYGIS | VIYSDGRRTFYSDSVK | GQTAGTFDA [GP_Gen] gave 0.28 (6 of 6 replicates). With NFDLNSYGIS | VIYSDGRRTFYGDSVK | GRQAGTFDS [GP_HC] the result was 2.08 (6 of 6 replicates).

The variant GFTLNSYGIS | VIYSDGRRTFYADSVK | GQVAGTFDS [GPLM_Gen] gave 0.44 (6 of 6 replicates). With GFTLNSYGIS | VIYSDGRRTFYSDSVK | GVAGGTFDL [GP_HC] the result was 1.49 (5 of 6 replicates). The variant GFTLNDYGIS | VIYSDGRRTAYGDSVK | GHAAGTFDS [Ctrl] gave -0.01 (6 of 6 replicates). For GFSLNSYGIS | VIYSDGRRTFYGDSVK | GKVAGTFDT [GP_Gen], the assay gave 0.11 (6 of 6 replicates). The variant GFTLNSYGIS | VIYSDGRRTFYSDSVK | GMAAGTFDR [GP_HC] showed 2.31 (6 of 6 replicates). The variant NFDLNSYGIS | VIYSDGRRTFYTDSVK | GQTAGTFDS [GP_Gibbs] showed 0.51 (6 of 6 replicates).

With GFELNSYGIS | VIYADGRRTFYGDSVK | GSAAGTFDS [GPLM_Gen] the result was 0.31 (2 of 6 replicates). With GFELNDYGIS | VIYSDGRRTEYMDSVK | GRAAGTFDS [GP_HC] the result was 1.36 (5 of 6 replicates). For GFHLNEYGIS | VIYSDGRRTFYGDSVK | GRHAGTFDS [GPLM_Gen], the assay gave 1.66 (6 of 6 replicates). For GFTLNSYGIS | VIYADGRRTFYGDSVK | GKRAGTFDS [Ctrl], the assay gave 0.15 (6 of 6 replicates). The variant GFTLKSYGIS | VIYSDGRRTFYSDSVK | GQAGGTFDS [GP_HC] gave 1.12 (5 of 6 replicates). With GFDLNSYGIS | VIYSDGRRTMYTDSVK | GQAAGTFDS [GP_Gibbs] the result was 0.62 (6 of 6 replicates).

The variant GFDLNSYGIS | VIYSDGRRTFYGDSVK | GRVAGSFDS [GPLM_Gen] showed 0.29 (6 of 6 replicates). The variant GFNLNSYGIS | VIYSDGRRTFYGDSVK | GKNAGTFDS [GPLM_Gibbs] gave 1.03 (6 of 6 replicates). The variant GFTLNSYGYS | VIYSDGYRTFYGDSVK | GRAAGTGDS [Ctrl] showed nd (0 of 6 replicates).

The 6 strongest on average among those seen in every replicate, once more:

| CDR-H1 | CDR-H2 | CDR-H3 | group | mean, log10 nM | replicates with signal |
|---|---|---|---|---|---|
| GFDLNSYGIS | VIYSDGRRTFYVDSVK | GSAAGTFDS | GPLM_HC | -0.52 | 6/6 |
| GFSLNSYGIS | VIYSDGRRTFYGDSVK | GKEAGTFDT | GPLM_Gibbs | -0.38 | 6/6 |
| GFTLNDYGIS | VIYSDGRRTAYGDSVK | GHAAGTFDS | Ctrl | -0.01 | 6/6 |
| GFTLNEYGIS | VIYSDGRRTFYGDSVK | GRYAGTFDT | GPLM_Gen | 0.04 | 6/6 |
| GFSLNSYGIS | VIYSDGRRTFYGDSVK | GKVAGTFDT | GP_Gen | 0.11 | 6/6 |
| GFTLNSYGIS | VIYSDGRRTFYSDDVK | GQAAGTFDT | GP_Gibbs | 0.14 | 6/6 |

Of ten entries with the parent sequence, four were seen in most replicates (averages 0.34 to 2.37), three in one and three in none, so single entries are noisy.
As a blank, each scFv also met three strains without target: over all heavy chain designs, 1% of these pairings were detected, typically at 2.08 and seldom below 0.84.
A sequence measured in both rounds can read differently, since the two assays cover different ranges.

Data: MIT Lincoln Laboratory AlphaSeq set, Li et al. 2023, doi:10.1038/s41467-023-39022-2, as distributed in FLAb.